This note sets out measurements from patent publication US20050075361A1 (priority 2002, published 2005).

This test has as its system male Sprague-Dawley rats. Conditions: for Analgesic duration: IM, plantar test; for onset of action: intramuscular injection, sesame oil.
Where [1] appears, read: dose 0.3 μM/kg, sesame oil solution.

Like-named read-outs stand apart in the source and are kept apart here.

In turn, Dibuprenorphine sebacoyl ester gave an Analgesic duration under setting [1] of 96 h. In addition, the onset of action (dose 0.3 μM/kg) was 2 h.
In turn, Buprenorphine decanoate returned an Analgesic duration (dose 0.6 μM/kg) of 96 h.
Under setting [1], Dibuprenorphine pimelate showed an Analgesic duration of 72 h. The substance further came in with an onset of action (dose 0.3 μM/kg) of 2 h.
The substance Buprenorphine palmitate gave an Analgesic duration (dose 0.6 μM/kg) of 96 h.
